Data on one substance can be found in patent US8343539.

By UniProt entry, the sequences of proteins in these tests, tags left out. Residues count along the entry.
UniProt P06756, 31-1048, chain 1 of 2: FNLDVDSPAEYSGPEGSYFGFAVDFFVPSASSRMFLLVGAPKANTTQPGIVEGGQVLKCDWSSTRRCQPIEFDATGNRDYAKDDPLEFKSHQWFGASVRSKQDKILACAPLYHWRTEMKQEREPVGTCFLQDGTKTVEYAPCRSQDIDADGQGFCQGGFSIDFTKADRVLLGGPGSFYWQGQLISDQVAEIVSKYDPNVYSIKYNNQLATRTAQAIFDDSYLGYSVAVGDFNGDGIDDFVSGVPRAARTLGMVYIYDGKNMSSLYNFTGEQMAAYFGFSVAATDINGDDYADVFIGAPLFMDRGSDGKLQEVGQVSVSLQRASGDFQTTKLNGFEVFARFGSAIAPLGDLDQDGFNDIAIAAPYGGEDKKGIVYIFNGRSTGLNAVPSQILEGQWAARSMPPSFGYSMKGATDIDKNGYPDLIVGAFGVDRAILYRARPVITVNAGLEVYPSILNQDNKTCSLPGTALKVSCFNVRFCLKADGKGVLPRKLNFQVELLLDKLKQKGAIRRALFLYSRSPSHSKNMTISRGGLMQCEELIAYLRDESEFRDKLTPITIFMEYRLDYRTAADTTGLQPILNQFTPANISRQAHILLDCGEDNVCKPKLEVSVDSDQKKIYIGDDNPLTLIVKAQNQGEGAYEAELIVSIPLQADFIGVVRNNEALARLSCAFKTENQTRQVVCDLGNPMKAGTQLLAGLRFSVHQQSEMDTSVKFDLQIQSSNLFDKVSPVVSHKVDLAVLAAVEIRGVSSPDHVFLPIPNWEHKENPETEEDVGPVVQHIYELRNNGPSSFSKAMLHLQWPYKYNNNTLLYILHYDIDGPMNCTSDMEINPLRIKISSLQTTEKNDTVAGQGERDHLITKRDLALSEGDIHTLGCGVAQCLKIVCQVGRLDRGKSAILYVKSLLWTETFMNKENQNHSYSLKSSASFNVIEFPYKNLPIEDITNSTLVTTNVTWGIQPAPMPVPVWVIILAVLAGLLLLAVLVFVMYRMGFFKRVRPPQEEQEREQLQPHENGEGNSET
Human fibronectin (fibronectin-coated coverslips, BD Biosciences), UniProt P02751, 32-2477 limits assumed: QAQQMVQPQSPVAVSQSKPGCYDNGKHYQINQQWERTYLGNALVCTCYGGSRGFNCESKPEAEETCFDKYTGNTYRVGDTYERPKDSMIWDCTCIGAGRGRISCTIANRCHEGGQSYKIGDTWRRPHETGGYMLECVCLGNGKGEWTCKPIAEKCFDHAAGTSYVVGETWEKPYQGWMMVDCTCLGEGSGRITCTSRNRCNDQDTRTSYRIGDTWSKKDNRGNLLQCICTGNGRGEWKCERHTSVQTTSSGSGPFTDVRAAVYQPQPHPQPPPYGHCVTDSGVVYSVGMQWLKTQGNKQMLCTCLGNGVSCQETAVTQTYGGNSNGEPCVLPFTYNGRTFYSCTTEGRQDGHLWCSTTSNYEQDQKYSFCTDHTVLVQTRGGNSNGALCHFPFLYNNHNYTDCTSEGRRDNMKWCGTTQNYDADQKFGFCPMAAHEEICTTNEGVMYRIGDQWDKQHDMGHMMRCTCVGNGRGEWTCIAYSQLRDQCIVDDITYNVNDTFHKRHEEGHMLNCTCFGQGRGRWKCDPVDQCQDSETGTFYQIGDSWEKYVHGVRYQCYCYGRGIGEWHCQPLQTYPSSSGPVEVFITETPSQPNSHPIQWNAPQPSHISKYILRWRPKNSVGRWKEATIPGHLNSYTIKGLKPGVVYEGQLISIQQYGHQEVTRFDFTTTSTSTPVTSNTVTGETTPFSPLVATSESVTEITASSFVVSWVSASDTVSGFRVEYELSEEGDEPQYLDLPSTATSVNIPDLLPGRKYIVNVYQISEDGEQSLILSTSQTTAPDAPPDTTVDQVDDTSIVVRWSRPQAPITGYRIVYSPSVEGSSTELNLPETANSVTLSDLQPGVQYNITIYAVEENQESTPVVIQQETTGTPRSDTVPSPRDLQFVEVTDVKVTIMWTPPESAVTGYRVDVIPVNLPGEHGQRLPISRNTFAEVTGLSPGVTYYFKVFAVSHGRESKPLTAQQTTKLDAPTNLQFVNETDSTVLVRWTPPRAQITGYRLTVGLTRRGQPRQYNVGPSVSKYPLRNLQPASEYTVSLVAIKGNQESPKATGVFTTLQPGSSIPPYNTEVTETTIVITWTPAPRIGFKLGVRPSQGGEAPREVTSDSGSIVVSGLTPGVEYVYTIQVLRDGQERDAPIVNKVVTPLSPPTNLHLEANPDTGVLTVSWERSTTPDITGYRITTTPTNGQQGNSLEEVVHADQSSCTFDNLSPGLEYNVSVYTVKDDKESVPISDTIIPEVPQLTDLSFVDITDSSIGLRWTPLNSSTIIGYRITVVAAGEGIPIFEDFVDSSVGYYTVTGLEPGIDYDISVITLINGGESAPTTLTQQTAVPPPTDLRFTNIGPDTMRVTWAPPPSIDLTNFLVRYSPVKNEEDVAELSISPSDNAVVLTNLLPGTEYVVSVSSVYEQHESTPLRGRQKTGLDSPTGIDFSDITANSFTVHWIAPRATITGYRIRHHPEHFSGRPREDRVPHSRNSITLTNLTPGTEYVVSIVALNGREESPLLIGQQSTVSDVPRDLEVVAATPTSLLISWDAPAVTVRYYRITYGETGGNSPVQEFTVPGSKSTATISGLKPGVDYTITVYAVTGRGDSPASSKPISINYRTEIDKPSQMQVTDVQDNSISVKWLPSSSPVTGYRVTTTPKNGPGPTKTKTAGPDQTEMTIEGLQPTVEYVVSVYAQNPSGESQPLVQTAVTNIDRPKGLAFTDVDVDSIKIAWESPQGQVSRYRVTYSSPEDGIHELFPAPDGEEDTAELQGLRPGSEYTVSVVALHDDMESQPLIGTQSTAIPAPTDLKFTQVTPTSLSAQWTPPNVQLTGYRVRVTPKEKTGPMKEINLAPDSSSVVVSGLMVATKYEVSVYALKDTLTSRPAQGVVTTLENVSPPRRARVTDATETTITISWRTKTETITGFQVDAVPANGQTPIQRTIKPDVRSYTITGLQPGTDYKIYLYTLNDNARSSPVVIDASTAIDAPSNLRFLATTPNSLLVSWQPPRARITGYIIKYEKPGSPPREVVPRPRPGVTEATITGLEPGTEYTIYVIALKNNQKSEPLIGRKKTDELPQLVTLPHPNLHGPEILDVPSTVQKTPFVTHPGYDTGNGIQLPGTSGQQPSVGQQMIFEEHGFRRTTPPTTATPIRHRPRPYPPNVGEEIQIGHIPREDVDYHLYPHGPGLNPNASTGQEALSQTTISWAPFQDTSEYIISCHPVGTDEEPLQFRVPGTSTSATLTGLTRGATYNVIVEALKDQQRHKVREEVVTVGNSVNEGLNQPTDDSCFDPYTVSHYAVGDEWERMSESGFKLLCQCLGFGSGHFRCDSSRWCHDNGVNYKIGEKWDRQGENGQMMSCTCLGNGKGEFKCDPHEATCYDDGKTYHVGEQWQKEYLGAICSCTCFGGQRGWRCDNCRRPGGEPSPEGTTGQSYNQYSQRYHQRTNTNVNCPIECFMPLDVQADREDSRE

In assay [1] the target is human αvβ3 integrin (human) (UniProt P06756). Put plainly: cell-based or functional assay.
Assay [2] addresses human integrin β1 subunit (human) (UniProt P05556). In words: cell-based or functional assay.

The substance “Human fibronectin (fibronectin-coated coverslips, BD Biosciences), P02751 32-2477 (ligand)” showed a percentage of reduction in HUVEC adhesion by the anti-αvβ3 blocking antibody (LM609) compared to non-blocked cells in assay [1] of 72.4%. Also, in assay [2], the percentage of reduction in HUVEC adhesion by the anti-β1 blocking antibody (P5D2) compared to non-blocked cells came out at 73.8%.
